In publication PMC8957250 (ADMET & DMPK, 2019):

What was measured:
[1] = Rat (0.25 kg), Experimental; rat plasma incubation, Lineweaver-Burke plot
in vitro = settings: rat, pH 7.4

For `CCOC(=O)C1=C[C@@H](OC(CC)CC)[C@H](NC(C)=O)[C@@H](N)C1` [OP, oseltamivir phosphate], the “Vmax of OP metabolism” value [1] was 61.2 mg/h and the Km at 1 h (in vitro) was 300 µg/mL.
